Assays:
[1] = molecular target: T1, human LRRC15 extracellular domain with C-terminal His tag (human, UniProt Q8TF66 22-538); test: SPR (Example 3), 25°C; kd as listed in Table 6
T1 construct: Recombinant, made in HEK293; the entry holds the extracellular domain and the His tag; SPR analyte; also called TPP-1545; hLRRC15 CT-His
T1 sequence: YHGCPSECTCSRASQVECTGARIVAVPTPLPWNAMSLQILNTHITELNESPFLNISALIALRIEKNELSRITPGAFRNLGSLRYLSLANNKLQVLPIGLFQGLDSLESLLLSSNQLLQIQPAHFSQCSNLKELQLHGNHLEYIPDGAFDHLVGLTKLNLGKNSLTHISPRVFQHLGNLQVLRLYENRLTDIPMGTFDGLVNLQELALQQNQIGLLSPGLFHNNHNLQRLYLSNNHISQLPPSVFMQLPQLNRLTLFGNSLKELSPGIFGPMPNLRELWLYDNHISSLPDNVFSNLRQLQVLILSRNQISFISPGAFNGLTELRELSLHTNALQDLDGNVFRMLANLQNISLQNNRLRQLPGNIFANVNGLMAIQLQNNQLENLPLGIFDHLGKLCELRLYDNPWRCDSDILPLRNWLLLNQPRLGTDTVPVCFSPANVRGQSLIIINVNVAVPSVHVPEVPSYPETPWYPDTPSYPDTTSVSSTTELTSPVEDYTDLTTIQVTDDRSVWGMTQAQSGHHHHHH
Method: (§1) To assess if anti-LRRC-15 antibodies show a difference in binding at different temperatures, binding assays were conducted using surface plasmon resonance (SPR). Binding assays were performed on a Biacore T200 instrument at temperatures of 10° C., 20° C., 25° C. and 37° C. with assay buffer HBS EP+, 1 mg/ml BSA (bovine serum albumine), 300 mM NaCl, 0.05% NaN₃. Antibodies were captured via anti-human Fc IgGs covalently amine coupled to a CM5 sensor chip and human LRRC15 was used as an analyte in a concentration series from 1.56-200 nM in multi cycle kinetics mode. Pre-experiments were conducted to have an equal capture level at each temperature. Obtained sensorgrams were fitted to a 1:1 Langmuir binding model to derive kinetic data.

[2] = molecular target: T2, murine LRRC15 extracellular domain with C-terminal His tag (mouse, UniProt Q80X72 22-536); test: SPR (Example 6), overview table, repeats Table 9; head prints [M^-1]
T2 construct: Recombinant, made in HEK293; the entry holds the extracellular domain and the His tag; SPR analyte; also called TPP-9045
Method: (§2) To assess the binding kinetics and affinity of anti-LRRC15 antibodies as well as their species cross-reactivity profile, binding assays were conducted using surface plasmon resonance (SPR). Binding assays were performed on a Biacore T200 instrument at 25° C. using assay buffer HBS EP+, 1 mg/ml BSA, 300 mM NaCl, 0.05% NaN3. Antibodies were captured via anti-human Fc IgGs covalently amine coupled to a CM5 sensor chip and human, mouse and cynomolgus LRRC15 were used as analytes in a concentration series from 1.56-200 nM in multi cycle kinetics mode. To obtain reliable dissociation rate constants (kd) the dissociation rate was prolonged from 2.000 seconds to 12.000 seconds for two concentrations of antigen injection (25 nM and 200 nM). Obtained sensorgrams were fitted to a 1:1 Langmuir binding model to derive kinetic data.

[3] = molecular target: T1, human LRRC15 extracellular domain with …; test: SPR Biacore T200, antibody captured, LRRC15 analyte, 25°C
Method: as §1

[4] = molecular target: T1, human LRRC15 extracellular domain with …; test: SPR Biacore T200, 25°C, antibody captured, LRRC15 analyte
Method: as §2

[5] = molecular target: T2, murine LRRC15 extracellular domain with …; test: as above
Method: as §2

[6] = molecular target: T3, cynomolgus (Macaca fascicularis) LRRC15 extracellular domain with C-terminal His tag (cynomolgus monkey (Macaca fascicularis), UniProt Q8TF66 22-538 (human entry)); test: as above
T3 construct: Recombinant, made in HEK293; the entry holds the extracellular domain and the His tag; SPR analyte; also called TPP-9046
T3 chain: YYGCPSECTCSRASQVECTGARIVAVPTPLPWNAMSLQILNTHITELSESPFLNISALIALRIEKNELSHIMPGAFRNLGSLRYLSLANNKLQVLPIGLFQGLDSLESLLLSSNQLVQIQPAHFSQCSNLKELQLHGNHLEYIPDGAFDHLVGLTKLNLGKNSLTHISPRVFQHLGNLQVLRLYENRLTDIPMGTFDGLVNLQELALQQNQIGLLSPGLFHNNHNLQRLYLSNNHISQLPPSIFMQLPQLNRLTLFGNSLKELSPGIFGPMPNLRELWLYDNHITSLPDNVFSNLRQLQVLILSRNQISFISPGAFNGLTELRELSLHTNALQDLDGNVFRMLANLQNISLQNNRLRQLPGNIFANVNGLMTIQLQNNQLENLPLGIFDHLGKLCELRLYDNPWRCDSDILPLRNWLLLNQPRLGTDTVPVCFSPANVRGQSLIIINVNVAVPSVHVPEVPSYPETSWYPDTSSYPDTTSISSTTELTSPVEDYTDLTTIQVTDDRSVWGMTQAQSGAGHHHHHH
Method: as §2

[7] = molecular target: T1, human LRRC15 extracellular domain with …; test: SPR Biacore T200, antibody captured, LRRC15 analyte, 10°C
Method: as §1

[8] = molecular target: T1, human LRRC15 extracellular domain with …; test: SPR (Example 3), 10°C; kd as listed in Table 6
Method: as §1

[9] = molecular target: T1, human LRRC15 extracellular domain with …; test: SPR Biacore T200, antibody captured, LRRC15 analyte, 37°C
Method: as §1

[10] = molecular target: T1, human LRRC15 extracellular domain with …; test: SPR Biacore T200, antibody captured, LRRC15 analyte, 20°C
Method: as §1

[11] = molecular target: T1, human LRRC15 extracellular domain with …; test: SPR (Example 3), 20°C; kd as listed in Table 6
Method: as §1

[12] = molecular target: T1, human LRRC15 extracellular domain with …; test: SPR (Example 3), 37°C; kd as listed in Table 6
Method: as §1

B1: TPP-17078 (antibody, human IgG1, kappa, V domains shown)
VH: EVQLVQSGAEVKKPGASVKVSCKASGYKFSSYWIEWVKQAPGQGLEWIGEILPGSDTTNYNEKFKDRATFTSDTSINTAYMELSRLRSDDTAVYYCARDRGNYRAWFGYWGQGTLVTVSS
VL: DIQMTQSPSSLSASVGDRVTITCRASQSISSYLNWYQQKPGGAPKFLIYYASSLQSGVPSRFSGSGSGTDYTLTISSLQPEDFATYYCQQGFSLPWTFGGGTKVEIKR
notes: also called 438H-M308-H05-hIgGkappa
[1]
  koff: 9.1e-05 s⁻¹
[2]
  Kd: 2.9 nM
[3]
  koff: 9.1e-05 s⁻¹
  kon: 58000 M⁻¹ s⁻¹
[4]
  koff: 8.1e-05 s⁻¹
  kon: 47000 M⁻¹ s⁻¹
[5]
  Kd: 2.9 nM
  koff: 0.00012 s⁻¹
  kon: 42000 M⁻¹ s⁻¹
[6]
  koff: 0.00011 s⁻¹
  kon: 59000 M⁻¹ s⁻¹
[7]
  koff: 1.3e-05 s⁻¹
  kon: 40000 M⁻¹ s⁻¹
[8]
  koff: 1.3e-05 s⁻¹
[9]
  koff: 0.00066 s⁻¹
  kon: 67000 M⁻¹ s⁻¹
[10]
  koff: 4.6e-05 s⁻¹
  kon: 52000 M⁻¹ s⁻¹
[11]
  koff: 4.6e-05 s⁻¹
[12]
  koff: 0.00066 s⁻¹

B2: TPP-17405 (antibody, human IgG1, kappa, V domains shown)
VH: EVQLVQSGAEVKKPGASVKVSCKASGYKFSSYWIEWVKQAPGQGLEWIGEILPGSDTTNYNEKFKDRATFTSDTSINTAYMELSRLRSDDTAVYYCARDRGNYRAWFQYWGQGTLVTVSS
VL: DIQMTQSPSSLSASVGDRVTITCRASQRISSYLNWYQQKPGGAPKFLIYYASSLQSGVPSRFSGSGSGTDYTLTISSLQPEDFATYYCDQGLELPWTFGGGTKVEIKR
notes: also called 438H-M345-F05-hIgG1Kappa
[2]
  Kd: 2.7 nM
[4]
  koff: 6.1e-05 s⁻¹
  kon: 72000 M⁻¹ s⁻¹
[5]
  Kd: 2.7 nM
  koff: 0.00011 s⁻¹
  kon: 42000 M⁻¹ s⁻¹
[6]
  koff: 6.9e-05 s⁻¹
  kon: 88000 M⁻¹ s⁻¹

B3: TPP-17418 (antibody, human IgG1, kappa, V domains shown)
VH: EVQLVQSGAEVKKPGASVKVSCKASGYKFSSYWIEWVKQAPGQGLEWIGEILPGSDWTNYNEKFKDRATFTSDTSINTAYMELSRLRSDDTAVYYCARDRGNYRAWFQYWGQGTLVTVSS
VL: DIQMTQSPSSLSASVGDRVTITCRASQSISSYLNWYQQKPGGAPKFLIYYASSLQSGVPSRFSGSGSGTDYTLTISSLQPEDFATYYCQQGFSLPWTFGGGTKVEIKR
notes: also called 438H-M308-H05_B-hIgG1Kappa
[2]
  Kd: 0.89 nM
[4]
  koff: 3.5e-05 s⁻¹
  kon: 33000 M⁻¹ s⁻¹
[5]
  Kd: 0.89 nM
  koff: 2.6e-05 s⁻¹
  kon: 29000 M⁻¹ s⁻¹
[6]
  koff: 3.9e-05 s⁻¹
  kon: 39000 M⁻¹ s⁻¹

B4: TPP-17419 (antibody, human IgG1, kappa, V domains shown)
VH: EVQLVQSGAEVKKPGASVKVSCKASGYKFSSYWIEWVKQAPGQGLEWIGEILPGSDWTNYNEKFKDRATFTSDTSINTAYMELSRLRSDDTAVYYCARDRGNYRAWFQYWGQGTLVTVSS
VL: DIQMTQSPSSLSASVGDRVTITCRISQSISSYLNWYQQKPGGAPKFLIYYASSLQSGVPSRFSGSGSGTDYTLTISSLQPEDFATYYCQQGLRLPWTFGGGTKVEIKR
notes: also called 438H-M307-H07-hIgG1Kappa
[2]
  Kd: 2.3 nM
[4]
  koff: 7.6e-05 s⁻¹
  kon: 22000 M⁻¹ s⁻¹
[5]
  Kd: 2.3 nM
  koff: 5.6e-05 s⁻¹
  kon: 24000 M⁻¹ s⁻¹
[6]
  koff: 0.00011 s⁻¹
  kon: 44000 M⁻¹ s⁻¹

B5: TPP-17421 (antibody, human IgG1, kappa, V domains shown)
VH: EVQLVQSGAEVKKPGASVKVSCKASGYKFSSYWIEWVKQAPGQGLEWIGEILPGSDWTNYNEKFKDRATFTSDTSINTAYMELSRLRSDDTAVYYCARDRGNYRAWFQYWGQGTLVTVSS
VL: DIQMTQSPSSLSASVGDRVTITCRASQSISSYLNWYQQKPGGAPKFLIYYASSLQSGVPSRFSGSGSGTDYTLTISSLQPEDFATYYCQQGLELPWTFGGGTKVEIKR
notes: also called 438H-M306-C11-hIgG1Kappa
[1]
  koff: 5.3e-05 s⁻¹
[2]
  Kd: 1.6 nM
[3]
  koff: 5.3e-05 s⁻¹
  kon: 60000 M⁻¹ s⁻¹
[4]
  koff: 3.7e-05 s⁻¹
  kon: 39000 M⁻¹ s⁻¹
[5]
  Kd: 1.6 nM
  koff: 4.5e-05 s⁻¹
  kon: 29000 M⁻¹ s⁻¹
[6]
  koff: 4.2e-05 s⁻¹
  kon: 46000 M⁻¹ s⁻¹
[7]
  koff: 2e-05 s⁻¹
  kon: 42000 M⁻¹ s⁻¹
[8]
  koff: 2e-05 s⁻¹
[9]
  koff: 0.00018 s⁻¹
  kon: 76000 M⁻¹ s⁻¹
[10]
  koff: 4.3e-05 s⁻¹
  kon: 52000 M⁻¹ s⁻¹
[11]
  koff: 4.3e-05 s⁻¹
[12]
  koff: 0.00018 s⁻¹

B6: TPP-17073 (antibody, human IgG1, kappa, V domains shown)
VH: EVQLLESGGGLVQPGGSLRLSCAASGFTFSGYMMSWVRQAPGKGLEWVSGIYPSAGYTLYADSVKGRFTISRDNSKNTLYLQMNSLRAEDTAVYYCAREKAADLFGSYSEALDYWGQGTLVTVSS
VL: DIQMTQSPDSLSASVGDRVTITCRASQDVGSWLAWYQQKPGKAPKLLIFAASYLESGIPSRFSGSGSGTDFTLTISSLQPEDFATYYCQQANGFPLTFGGGTKVEIKR
notes: Variant of TPP-1633, human IgG1; also called 438H-M113-N15-hIgG1
[2]
  Kd: 2.5 nM
[4]
  koff: 9.1e-05 s⁻¹
  kon: 440000 M⁻¹ s⁻¹
[5]
  Kd: 2.5 nM
  koff: 0.00024 s⁻¹
  kon: 97000 M⁻¹ s⁻¹
[6]
  koff: 0.00011 s⁻¹
  kon: 600000 M⁻¹ s⁻¹

B7: TPP-14389 (antibody, human IgG1, kappa, V domains shown)
VH: EVQLLESGGGLVQPGGSLRLSCAASGFTFSGYMMSWVRQAPGKGLEWVSGIYPSPGYTYYADSVKGRFTISRDNSKNTLYLQMNSLRAEDTAVYYCAREKASDLFGSYSEALDYWGQGTLVTVSS
VL: DIQMTQSPDSLSASVGDRVTITCRASQDVGSWLAWYQQKPGKAPKLLIFAASSLESGIPSRFSGSGSGTDFTLTISSLQPEDFATYYCQQANGFPLTFGGGTKVEIKR
notes: Variant of TPP-1633, human IgG1 kappa; also called 13612-rec02-hIgG1Kappa
[1]
  koff: 0.0013 s⁻¹
[2]
  Kd: 52 nM
[3]
  koff: 0.0013 s⁻¹
  kon: 240000 M⁻¹ s⁻¹
[4]
  koff: 0.0019 s⁻¹
  kon: 320000 M⁻¹ s⁻¹
[5]
  Kd: 52 nM
  koff: 0.0019 s⁻¹
  kon: 37000 M⁻¹ s⁻¹
[6]
  koff: 0.0016 s⁻¹
  kon: 180000 M⁻¹ s⁻¹
[7]
  koff: 0.00012 s⁻¹
  kon: 190000 M⁻¹ s⁻¹
[8]
  koff: 0.00012 s⁻¹
[9]
  koff: 0.019 s⁻¹
  kon: 300000 M⁻¹ s⁻¹
[10]
  koff: 0.00047 s⁻¹
  kon: 230000 M⁻¹ s⁻¹
[11]
  koff: 0.00047 s⁻¹
[12]
  koff: 0.019 s⁻¹
